Source: patent publication US20040106635A1, “Spiroisoquinoline compound, a method for preparing the same and an intermediate thereof” (priority 2001, published 2004)

Amino acid sequences for entries named in this document (tags omitted). Residues count along the entry.
UniProt P22303, 32-614 limits assumed: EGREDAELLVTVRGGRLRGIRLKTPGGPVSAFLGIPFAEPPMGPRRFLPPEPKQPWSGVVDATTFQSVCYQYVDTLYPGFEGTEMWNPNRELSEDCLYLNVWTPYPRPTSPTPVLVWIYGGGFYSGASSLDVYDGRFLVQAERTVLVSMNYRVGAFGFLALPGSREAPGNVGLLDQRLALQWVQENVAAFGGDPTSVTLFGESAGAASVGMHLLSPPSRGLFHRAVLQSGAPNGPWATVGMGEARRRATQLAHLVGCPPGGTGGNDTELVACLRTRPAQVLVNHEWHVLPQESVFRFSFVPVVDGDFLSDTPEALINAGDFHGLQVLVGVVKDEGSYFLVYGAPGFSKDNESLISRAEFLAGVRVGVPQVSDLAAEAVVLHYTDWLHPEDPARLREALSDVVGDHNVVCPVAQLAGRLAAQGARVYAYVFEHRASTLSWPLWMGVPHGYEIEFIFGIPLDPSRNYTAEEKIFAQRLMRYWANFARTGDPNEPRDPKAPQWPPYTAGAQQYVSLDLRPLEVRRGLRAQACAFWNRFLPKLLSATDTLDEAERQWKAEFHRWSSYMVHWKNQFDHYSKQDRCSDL

target: acetylcholinesterase (AChE) (Homo sapiens, UniProt P22303); assay: Inhibitory activity on acetylcholinesterase (AChE), Ellman method; details: read-out: Acetylcholinesterase inhibitory activity (IC50; μM); 25° C., pH 7.4, in the presence of 1% BSA, absorbance at 412 nm; tested form: fumarate

Point of comparison: `COc1cc2c(cc1OC)[C@]1(CC[C@@H](C(=O)N3CCN(c4ncnc5c4cnn5Cc4ccccc4[N+](=O)[O-])CC3)CC1)N(C(=O)CCN(C)C)CC2` (relative stereo), IC50 60 nM. Against it:
- CCN1CCc2cc(OC)c(OC)cc2[C@@H]1[C@H]1C[C@H](C(=O)N2CCN(c3ncnc4c3cnn4Cc3ccccc3[N+](=O)[O-])CC2)CC[C@]12c1cc(OC)c(OC)cc1CCN2C(=O)CCNC (relative stereo) — 200-fold lower, 0.3 nM
- CCN1CCc2cc(OC)c(OC)cc2[C@@H]1[C@H]1C[C@H](C(=O)N2CCN(c3ncnc4c3nnn4Cc3ccccn3)CC2)CC[C@]12c1cc(OC)c(OC)cc1CCN2C(=O)CCNC (relative stereo) — 750-fold lower, 0.08 nM
